The structures appear in SMILES notation. This is a selection; strong and weak results do not stand in their true shares. The source made the active and inactive calls.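 How the source made its calls: active means cell count reduction more than 3 SD above the screen-wide mean (cut at about 70% in these data); inactive means the rest.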

This note sets out measurements from PubChem BioAssay AID845 (Columbia University Molecular Screening Center, 2007).

The test in a line: cytotoxicity in IL-1B stimulated HUVEC, primary screen, cytotoxicity control for IL-1B NFkB translocation project, imaging, Hoechst nuclear count, IL-1B stimulus (AID 845).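 Further: normalized per plate to untreated control cells as the no-loss baseline.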 The conditions noted are these: HUVEC cell count loss, at 2 µM, hits give high values.
`CC1CCN(C(=O)Oc2c(Cl)cc(Cl)c3cccnc23)CC1`: the cell count reduction is inactive: 6.6%.

Consider `CC(=O)N1C2C3N(C(C)=O)C1C1N(C(C)=O)C(C(N1C(C)=O)N3C(C)=O)N2C(C)=O`, for which the cell count reduction is inactive: -13.6%.

Take `O=[N+]([O-])c1cccc2n[nH]nc12`: the cell count reduction is inactive: -11.8%.

Turning to `CCc1nc2c(n1)c1c(non1O)c1c2no[n+]1[O-]`, the cell count reduction was inactive: -3.6%.

Regarding `CC(C)CC(=O)NC(Sc1ccc(Cl)cc1)C(Cl)(Cl)Cl` (configuration not stated), the cell count reduction is inactive: 9.3%.

As for `Cc1c2non([O-])c-2c(C)[n+](=O)[n+]1[O-]`, the cell count reduction was inactive: -8%.

Consider `Oc1ccccc1CNc1ccccn1`, for which the cell count reduction was inactive: -137%.

In the case of `CN1CCCC(OC(=O)C(c2ccccc2)c2ccccc2)C1` (configuration not stated), the cell count reduction is inactive: -15.4%.

For the compound `CCOP(=O)(Nc1ccccc1)OCC`, the cell count reduction was inactive: 10.6%.

As to `COC(=O)c1cc2c(s1)N=C(c1ccccc1)N(C)P2(=O)N1CCOCC1` (configuration not stated), the cell count reduction was inactive: -37.6%.

For `CCC(=O)N1C2C3N(C(=O)CC)C1C1N(C(=O)CC)C(C(N1C(=O)CC)N3C(=O)CC)N2C(=O)CC`, the cell count reduction is inactive: -22.7%.

Regarding `CCOC(=O)NC(Sc1ccccc1)C(Cl)(Cl)Cl` (configuration not stated), the cell count reduction was inactive: -19.2%.

Turning to `O=P1(Nc2nc3ccc(Cl)cc3s2)COc2ccccc2O1` (configuration not stated), the cell count reduction was inactive: 12%.

For the compound `c1nnnn1CCn1cnnn1`, the cell count reduction is inactive: -11.4%.

In the case of `O=P(Nc1nccs1)(c1ccccc1)c1ccccc1`, the cell count reduction is inactive: -30.1%.

In the case of `O=C(OC1CN2CCC1CC2)c1cccc(Cl)c1` (configuration not stated), the cell count reduction is inactive: -7.3%.

In the case of `Cc1ccc(OCC(=O)OC2CN3CCC2CC3)cc1` (configuration not stated), the cell count reduction is inactive: -2%.

Turning to `O=P1(Nc2ccc(Br)cn2)COc2ccccc2OC1`, the cell count reduction was inactive: 0%.

`O=P1(Nc2ncccn2)COc2ccccc2OC1`: the cell count reduction is inactive: 17%.

For `Cc1nn(-c2ccccc2)c2c1P(=O)(N1CCOCC1)N(C)C(c1ccccc1)=N2` (configuration not stated), the cell count reduction is inactive: -5.7%.

Consider `CC1(CBr)Cn2c(nc3ccccc3c2=O)S1` (configuration not stated), for which the cell count reduction was inactive: 24.5%.

With `Clc1n[nH]nc1-c1nn[nH][15n]1`, the cell count reduction was inactive: 5.6%.

As for `O=P1(Nc2ccccn2)COc2ccccc2OC1`, the cell count reduction was inactive: -26.7%.

For the compound `Cc1cccc(OCC(=O)OC2CN3CCC2CC3)c1` (configuration not stated), the cell count reduction is inactive: -12.3%.

As to `O=[N+]([O-])c1ccc2c(c1)nnn2O`, the cell count reduction was inactive: 8.9%.

For the compound `CCOP1(=S)c2c(C)nn(CCC#N)c2N=C(c2ccc(F)cc2)N1C` (configuration not stated), the cell count reduction is inactive: 5.2%.

With `CCOP1(=S)c2c(C)nn(CCC#N)c2N=C(c2ccccc2F)N1C` (configuration not stated), the cell count reduction was inactive: 0%.

`CCN(CC)C(=S)SC(NC=O)C(Cl)(Cl)Cl` (configuration not stated): the cell count reduction was inactive: -8.8%.

Consider `O=C(OC1CN2CCC1CC2)C12CC3CC(CC(C3)C1)C2` (configuration not stated), for which the cell count reduction was inactive: 5.2%.

In the case of `CCC(C)N(CC(C)C)C(=S)SC(NC(C)=O)C(Cl)(Cl)Cl` (configuration not stated), the cell count reduction was inactive: -58.8%.

As for `O=C(COc1ccccc1)OC1CN2CCC1CC2` (configuration not stated), the cell count reduction is inactive: 5.8%.

For the compound `COP1(=S)c2c(C)nn(CCC#N)c2N=C(c2ccc(F)cc2)N1C` (configuration not stated), the cell count reduction was inactive: -20%.
